Test results from paper PMC7140522, “The Pyrazolo[3,4-d]pyrimidine Derivative, SCO-201, Reverses Multidrug Resistance Mediated by ABCG2/BCRP” (Cells, 2020).

Tested on: MDCK-II-WT cells
Experiment: MDR reversal analysis with MTT assay, MDCK-II-WT
Format: cell-based, canine
Conditions: Canis lupus familiaris, 72 h drug exposure, read-out: IC50 Value for Each Cell Line: MDCK-II-WT
Protocol: Control conditions consisted of full growth medium. All treatments were performed in triplicate.

CCc1c2c(nc3ccc(O)cc13)-c1cc3c(c(=O)n1C2)COC(=O)[C@]3(O)CC [SN-38, 7-Ethyl-10-hydroxycamptothecin]
IC50: 214 ± 23 nM
